Where two headings read alike, the source gives them in different places.

The chains behind the UniProt entries cited, without tags or fusion partners.
UniProt Q92918, whole entry: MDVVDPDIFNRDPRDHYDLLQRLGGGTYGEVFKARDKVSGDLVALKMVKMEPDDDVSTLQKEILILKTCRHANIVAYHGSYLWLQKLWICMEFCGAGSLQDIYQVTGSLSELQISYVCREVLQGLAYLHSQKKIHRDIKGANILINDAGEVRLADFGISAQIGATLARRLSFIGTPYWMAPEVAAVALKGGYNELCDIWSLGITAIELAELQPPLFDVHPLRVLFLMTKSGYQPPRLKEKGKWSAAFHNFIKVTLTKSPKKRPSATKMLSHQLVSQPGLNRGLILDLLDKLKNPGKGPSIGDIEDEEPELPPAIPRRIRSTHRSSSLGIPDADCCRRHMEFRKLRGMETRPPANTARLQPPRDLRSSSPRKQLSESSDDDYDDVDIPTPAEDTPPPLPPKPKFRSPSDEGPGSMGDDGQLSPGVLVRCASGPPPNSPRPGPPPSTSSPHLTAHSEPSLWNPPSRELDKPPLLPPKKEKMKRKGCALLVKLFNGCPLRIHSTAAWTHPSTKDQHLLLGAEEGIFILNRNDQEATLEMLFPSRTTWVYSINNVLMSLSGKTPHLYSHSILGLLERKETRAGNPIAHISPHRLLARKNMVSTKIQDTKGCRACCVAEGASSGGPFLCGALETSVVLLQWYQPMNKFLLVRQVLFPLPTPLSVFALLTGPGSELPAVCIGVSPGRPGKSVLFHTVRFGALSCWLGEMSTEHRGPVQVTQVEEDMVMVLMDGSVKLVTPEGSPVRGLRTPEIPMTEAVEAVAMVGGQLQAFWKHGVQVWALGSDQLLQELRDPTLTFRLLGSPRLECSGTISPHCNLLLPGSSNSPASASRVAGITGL

The target of assay [1] is T1, HPK1 kinase (Homo sapiens, UniProt Q92918). Nature of the assay: Lantha screen assay, inhibitory effect on HPK1 kinase.
Assay [2] addresses T1, HPK1 kinase. Nature of the assay: Activity of degrading HPK1 in Jurkat cells (Western blot, 24 h). It counts as cell-based. Conditions: HPK1 protein degradation, class symbols.
A further assay concerns HPK1/GLK. The assay can be described thus: Selectivity of degrading HPK1/GLK in Jurkat cells (Western blot, 24 h). Conditions: HPK1/GLK Fold = DC50 (HPK1) / DC50 (GLK). On the technique in general: A western blot detects proteins with antibodies after separation by electrophoresis.
The mark [3] stands for this setting: read-out: HPK1 IC50, initial compound concentration 1 µM.

With `Cc1cc(-c2cnc3[nH]cc(-c4cnc5c(c4)CN(C)CC5)c3n2)cc(C)c1C1=CCN(CC2CN(c3ccc(C(=O)NC4CCC(=O)NC4=O)cc3)C2)CC1` (stereo not drawn), the IC50 at HPK1 kinase [1] (setting [3]) is < 10 nM.

Turning to `Cc1cc(N2CC(CN3CC=C(c4c(C)cc(-c5cnc6[nH]cc(-c7cnn(C8CN(C(C)C)C8)c7)c6c5)cc4C)CC3)C2)ccc1N1CCC(=O)NC1=O`, the IC50 on HPK1 kinase [1] (read-out: HPK1 IC50, initial compound concentration 1 µM, tested form: free base) is < 10 nM.

As to `Cc1cc(-c2cnc3[nH]cc(-c4ccc(C(C)(F)F)cc4)c3n2)cc(C)c1C1=CCN(CC2CN(c3ccc(N4CCC(=O)NC4=O)c(F)c3)C2)CC1`, the IC50 at HPK1 kinase [1] (setting [3]) is < 10 nM. Moreover, the 50% degradation concentration (DC50) (as a rule, the midpoint of the concentration-degradation curve) at HPK1 kinase [2] was < 10 nM. Further, the “HPK1/GLK Fold” value in the assay on HPK1/GLK was “++++ (1000≤Fold)”.

For the compound `Cc1cc(N2CC3C(CN4CC=C(c5c(C)cc(-c6cnc7[nH]cc(-c8ccc(C(=O)N(C)C)cc8)c7n6)cc5C)CC4)C3C2)ccc1N1CCC(=O)NC1=O` (stereo not drawn), the IC50 at HPK1 kinase [1] (setting [3]) is < 10 nM.
